Patent US11471507B2, “HMGB1 antagonist” (THE FEINSTEIN INSTITUTES FOR MEDICAL RESEARCH, priority 2019, dated 2022)

Experiments:
in vitro [1] = conditions: mouse, serum
in vitro [2] = conditions: rat

NC(=O)[C@H](CCC(=O)O)NC(=O)[C@H](CO)NC(=O)[C@H](CO)NC(=O)[C@@H](N)Cc1ccccc1 [P5779]
half-life at 100 μg (in vitro [1]): 60 min
half-life (in vitro [2]; blood): 13 min
half-life (in vitro [2]; plasma): 12 min
